{"source": "PubChem BioAssay AID1508591", "conditions": "rat; liver microsomes; pH 7.4; 15.0 min; 1.0 µM", "data": [{"compound": "CC(=O)NC(SC(=S)N(C)C)C(Cl)(Cl)Cl", "note": "(stereo unspecified)", "values": [{"measurement": "half-life", "value": 1.4, "unit": "min"}]}]}
